{
  "sequences": {"note": "Chains of the proteins cited; added tags and fusions are not shown.", "UniProt P42858, whole entry": "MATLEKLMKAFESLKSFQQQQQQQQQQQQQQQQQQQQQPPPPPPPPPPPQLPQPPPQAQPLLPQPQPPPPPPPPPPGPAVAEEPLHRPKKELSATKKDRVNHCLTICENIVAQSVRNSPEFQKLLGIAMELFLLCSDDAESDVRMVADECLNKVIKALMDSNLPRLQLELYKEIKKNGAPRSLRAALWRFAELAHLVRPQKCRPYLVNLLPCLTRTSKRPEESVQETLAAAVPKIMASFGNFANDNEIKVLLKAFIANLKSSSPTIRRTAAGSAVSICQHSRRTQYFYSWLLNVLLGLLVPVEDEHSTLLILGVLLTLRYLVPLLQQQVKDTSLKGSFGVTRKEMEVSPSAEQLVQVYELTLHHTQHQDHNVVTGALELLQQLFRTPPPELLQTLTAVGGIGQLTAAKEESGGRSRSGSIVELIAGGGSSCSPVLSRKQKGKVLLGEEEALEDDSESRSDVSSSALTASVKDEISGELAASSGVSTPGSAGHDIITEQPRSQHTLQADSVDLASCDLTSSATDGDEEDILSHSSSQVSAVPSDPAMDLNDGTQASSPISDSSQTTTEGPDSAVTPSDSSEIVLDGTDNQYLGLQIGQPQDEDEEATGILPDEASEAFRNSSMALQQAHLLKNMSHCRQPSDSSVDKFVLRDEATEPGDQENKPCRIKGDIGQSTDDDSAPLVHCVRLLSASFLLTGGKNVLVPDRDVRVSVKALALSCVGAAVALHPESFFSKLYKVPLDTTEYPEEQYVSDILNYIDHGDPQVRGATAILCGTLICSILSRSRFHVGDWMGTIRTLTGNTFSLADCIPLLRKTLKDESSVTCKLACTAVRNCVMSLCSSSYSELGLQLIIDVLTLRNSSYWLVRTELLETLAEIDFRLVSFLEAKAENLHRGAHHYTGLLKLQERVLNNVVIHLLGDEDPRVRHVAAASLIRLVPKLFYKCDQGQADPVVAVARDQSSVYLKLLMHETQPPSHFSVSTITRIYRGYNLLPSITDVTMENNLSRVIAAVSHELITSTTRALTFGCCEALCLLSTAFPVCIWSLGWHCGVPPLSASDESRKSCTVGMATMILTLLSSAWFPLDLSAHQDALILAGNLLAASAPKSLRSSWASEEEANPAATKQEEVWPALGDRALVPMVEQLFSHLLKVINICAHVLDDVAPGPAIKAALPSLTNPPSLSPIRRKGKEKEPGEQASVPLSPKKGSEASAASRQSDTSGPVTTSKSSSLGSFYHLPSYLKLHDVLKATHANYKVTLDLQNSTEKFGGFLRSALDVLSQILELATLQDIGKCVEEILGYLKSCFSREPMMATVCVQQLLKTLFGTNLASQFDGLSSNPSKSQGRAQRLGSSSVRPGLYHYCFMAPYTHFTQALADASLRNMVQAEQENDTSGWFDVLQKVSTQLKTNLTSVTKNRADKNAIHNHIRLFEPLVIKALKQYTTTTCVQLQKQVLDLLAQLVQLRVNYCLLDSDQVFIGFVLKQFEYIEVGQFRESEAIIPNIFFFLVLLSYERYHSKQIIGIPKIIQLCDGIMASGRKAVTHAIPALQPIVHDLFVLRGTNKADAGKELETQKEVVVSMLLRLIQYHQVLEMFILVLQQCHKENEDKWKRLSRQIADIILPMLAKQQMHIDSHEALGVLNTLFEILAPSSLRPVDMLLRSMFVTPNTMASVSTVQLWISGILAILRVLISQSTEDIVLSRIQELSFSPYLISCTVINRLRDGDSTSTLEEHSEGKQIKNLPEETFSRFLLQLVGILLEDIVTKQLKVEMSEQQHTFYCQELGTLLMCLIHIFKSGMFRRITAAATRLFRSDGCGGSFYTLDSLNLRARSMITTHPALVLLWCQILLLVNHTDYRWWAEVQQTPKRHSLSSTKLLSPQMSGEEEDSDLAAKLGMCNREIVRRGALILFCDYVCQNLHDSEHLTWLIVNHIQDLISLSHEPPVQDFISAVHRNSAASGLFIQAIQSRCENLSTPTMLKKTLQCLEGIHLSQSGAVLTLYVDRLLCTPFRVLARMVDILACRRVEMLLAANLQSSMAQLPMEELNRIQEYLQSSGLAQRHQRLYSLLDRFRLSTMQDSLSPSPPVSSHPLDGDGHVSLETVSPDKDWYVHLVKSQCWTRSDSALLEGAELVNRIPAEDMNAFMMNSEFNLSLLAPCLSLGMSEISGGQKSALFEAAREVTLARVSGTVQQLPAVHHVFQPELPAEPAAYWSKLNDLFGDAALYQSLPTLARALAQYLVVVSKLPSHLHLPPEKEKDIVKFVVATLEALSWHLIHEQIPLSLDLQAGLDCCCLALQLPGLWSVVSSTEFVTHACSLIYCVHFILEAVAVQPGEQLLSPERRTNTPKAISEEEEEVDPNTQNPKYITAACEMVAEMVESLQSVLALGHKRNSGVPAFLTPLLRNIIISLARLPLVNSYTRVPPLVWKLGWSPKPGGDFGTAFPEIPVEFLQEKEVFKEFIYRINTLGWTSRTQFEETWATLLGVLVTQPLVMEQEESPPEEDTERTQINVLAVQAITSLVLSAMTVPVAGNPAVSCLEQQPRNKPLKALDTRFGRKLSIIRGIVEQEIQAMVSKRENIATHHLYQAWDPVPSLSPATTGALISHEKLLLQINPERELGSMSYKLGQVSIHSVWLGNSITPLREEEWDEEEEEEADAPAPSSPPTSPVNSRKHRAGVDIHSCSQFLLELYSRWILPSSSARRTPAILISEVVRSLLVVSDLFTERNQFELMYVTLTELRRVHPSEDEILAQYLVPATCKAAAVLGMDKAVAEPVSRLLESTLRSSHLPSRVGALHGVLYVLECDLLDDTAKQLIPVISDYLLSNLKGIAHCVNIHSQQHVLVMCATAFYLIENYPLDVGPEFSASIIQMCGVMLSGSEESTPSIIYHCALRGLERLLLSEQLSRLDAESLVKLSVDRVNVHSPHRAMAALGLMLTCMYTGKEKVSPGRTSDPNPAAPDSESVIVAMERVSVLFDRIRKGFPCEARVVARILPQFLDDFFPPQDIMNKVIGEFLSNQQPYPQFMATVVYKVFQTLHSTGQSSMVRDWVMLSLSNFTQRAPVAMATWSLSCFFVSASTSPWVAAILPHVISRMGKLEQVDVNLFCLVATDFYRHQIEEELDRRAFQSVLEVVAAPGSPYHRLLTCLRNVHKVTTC"},
  "source": "PubChem BioAssay AID1671202",
  "about": "(University of Kansas High Throughput Screening Laboratory, 2021)",
  "note": "This is a selection; strong and weak results do not stand in their true shares. Activity calls are given as the source filed them. Cut-off read from the data, not from the text of the source: active = inhibition above about 50%; inactive = the rest.",
  "data": [
    {"target": "Huntingtin (Homo sapiens) (UniProt P42858)", "assay": "mutant huntingtin-calmodulin interaction inhibitors – biochemical, AlphaScreen, primary screen (AID 1671202);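 note: 0% = both proteins with DMSO and 100% = one protein alone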", "details": "AlphaScreen His-mHTT/GST-CaM binding, luminescence; at 15 µM; stronger effect = higher value", "values": [
      {"compound": "CCOC(=O)N1CCC(Nc2ccc(C)cc2)CC1", "inhibition": "inactive: 4.2%"},
      {"compound": "CN1CCC(Nc2ccc(F)cc2)CC1", "inhibition": "inactive: -3.9%"},
      {"compound": "NC(=O)C1(Nc2ccccc2)CCN(Cc2ccccc2)CC1", "inhibition": "inactive: -3%"},
      {"compound": "CCCN1CCC(Nc2cc(OC)cc(OC)c2)CC1", "inhibition": "inactive: 2.2%"},
      {"compound": "CCCN1CCC(Nc2ccccc2F)CC1", "inhibition": "inactive: -10.4%"},
      {"compound": "CC(=O)N1CCN(C/C=C/c2ccccc2[N+](=O)[O-])CC1", "inhibition": "inactive: 1.1%"},
      {"compound": "CCN1CCC(Nc2ccc(F)cc2)CC1", "inhibition": "inactive: -3.3%"},
      {"compound": "CCN1CCC(Nc2cccc(F)c2)CC1", "inhibition": "inactive: -4.6%"},
      {"compound": "Fc1cccc(NC2CCN(CCc3ccccc3)CC2)c1", "inhibition": "inactive: 7.4%"},
      {"compound": "Clc1ccc(NC2CCN(Cc3ccccc3)CC2)cc1", "inhibition": "inactive: 14.9%"},
      {"compound": "Fc1ccccc1NC1CCN(Cc2ccccc2)CC1", "inhibition": "inactive: -8.8%"},
      {"compound": "CN1CCC(Nc2ccc(Cl)cc2)CC1", "inhibition": "inactive: 2.5%"},
      {"compound": "CN1CCC(Nc2ccc(F)c(Cl)c2)CC1", "inhibition": "inactive: 8.3%"},
      {"compound": "N#CC1(Nc2ccccc2)CCN(Cc2ccccc2)CC1", "inhibition": "inactive: 2%"},
      {"compound": "N#CC(C#N)=Cc1cc2c(cc1[N+](=O)[O-])OCO2", "inhibition": "inactive: 28.5%"},
      {"compound": "CCCN1CCC(Nc2ccc(F)cc2)CC1", "inhibition": "inactive: 0.4%"},
      {"compound": "COc1ccc(NC2CCN(CCc3ccccc3)CC2)c(OC)c1", "inhibition": "inactive: 17.4%"},
      {"compound": "O=S1(=O)CC(Cl)C(SC2CS(=O)(=O)CC2Cl)C1", "note": "(centres undefined)", "inhibition": "inactive: -3%"},
      {"compound": "CCN1CCC(Nc2ccc(Cl)cc2)CC1", "inhibition": "inactive: -1.4%"}
    ]}
  ]
}
